Ab-14 light chain CDR variants: yeast mating affinities

Antigen: PDVDLGDISGINAS, a 14-residue peptide of the SARS-CoV-2 spike HR2 region.

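Phage display of a naive human antibody library on the peptide gave the parent. In library AAYL50, one, two or three CDR residues were substituted; doubles and triples were drawn at random. The assay is AlphaSeq: two haploid yeast populations carry antibody and antigen on their surface. Pairs that bind mate more often; barcode pairs of the diploids are counted by sequencing. Scores were corrected for input abundance and mapped to Kd with protein pairs of known affinity run in the same pool. Each pool was mated in three replicate cultures.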

The variants keep the heavy chain, the linker and the frameworks of Ab-14 (scFv order VH, a (GGGGS)3 linker, VL).
VH: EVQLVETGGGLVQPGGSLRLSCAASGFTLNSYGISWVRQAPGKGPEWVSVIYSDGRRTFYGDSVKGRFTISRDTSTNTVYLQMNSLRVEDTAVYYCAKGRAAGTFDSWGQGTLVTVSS
VL: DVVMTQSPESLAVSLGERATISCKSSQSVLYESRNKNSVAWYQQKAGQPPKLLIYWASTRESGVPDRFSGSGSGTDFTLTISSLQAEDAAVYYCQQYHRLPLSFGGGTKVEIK

Each variant is given by its three light chain CDRs, as the data file delimits them; those of the parent are KSSQSVLYESRNKNSVA, WASTRES, QQYHRLPLS.
Scale: log10 of Kd in nM, estimated from mating counts; low values are strong binders.
An entry "n.d." has no value in the source: the pair was not observed among the diploids in that replicate. This suggests poor binding but is not conclusive.
Empty control strains, which show no peptide, gave a signal in 18% of pairings with library AAYL50; the median was 4.19 and 95% of these signals were weaker than 2.99. No background was subtracted. Also given: how often the same scFv was detected with the empty control strains, with their mean in brackets.
Parent in this assay: reference entry 0.65, copy in this library 1.68.

CDR-L1,CDR-L2,CDR-L3,log10 Kd (nM) by replicate,signal with controls
KSSQSVLYESRNKNSVA,WASTRES,QQYHRLPFS,1.51 1.52 1.45,0/9
KSSQSVYYESRNKNSVA,WASTRES,QQDFRLPLS,2.30 2.14 2.31,0/9
KSSQSVLYEMRNKNPVA,WASTRES,QQAHRLPLS,3.60 3.54 4.68,3/9 (3.94)
KSSQSVRYESRNKNSKA,WASTRES,QWYHRLPLS,n.d. n.d. n.d.,1/9 (5.11)
KSSQSVLYESRNKNQVA,WPSTREG,QQYHRLPLS,3.77 n.d. 5.54,3/9 (3.66)
KSSQSVVYESRNKNSVA,WASLRCS,QQYHRLPLS,2.09 1.63 2.08,2/9 (4.62)
KSSQSVRYESRNKNSVA,WAVTEES,QQYHRLPLS,n.d. n.d. n.d.,0/9
KSSQSVLYESRNKNQVA,YASTRES,DQYHRLPLS,n.d. n.d. n.d.,3/9 (3.59)
KSSQSVLYESRNKNSVA,WASTRES,QQAHRWPLS,4.28 3.84 5.85,3/9 (4.72)
KSSQSSLYESRNKNSVP,WYSTRES,QQYHRLPLS,n.d. 5.16 n.d.,2/9 (4.59)
KSSQWVLYESRNKHSVA,WASTRES,QQYHRLKLS,n.d. n.d. n.d.,2/9 (4.16)
KHSQPVLYDSRNKNSVA,WASTRES,QQYHRLPLS,0.77 1.03 1.08,3/9 (4.89)
KSSQSVLTEIRNKNSVA,WAWTRES,QQYHRLPLS,2.87 2.74 n.d.,1/9 (3.58)
KSSQTVLYESRNKNWVA,WASTRES,QQYHRLPLS,4.12 4.34 5.09,3/9 (4.67)
KSSSSVLYESRNKNSVA,WASTRQS,QQWHRLPLS,5.69 n.d. n.d.,1/9 (3.96)
KSSQSVLYESSNKNSVY,WASTRES,QQEHRLPLS,n.d. n.d. n.d.,0/9
KSSQSLLYESRNKNSVA,WASTRKS,QQYHRDPLS,n.d. n.d. n.d.,0/9
KSSQSFLYESRNKNSVA,GASTRES,QQYHRLTLS,-1.05 -0.58 -0.90,1/9 (2.87)
KSSQIMLYESRNKNSVA,WASTREL,QQYHRLPLS,0.86 0.99 0.97,1/9 (4.24)
KNSQSVLYESRNKNSVA,WAITKES,QQYHRLPLS,n.d. n.d. n.d.,0/9
KSSQSVLYESRNKNSVA,WASTRNS,QQYHRVPLD,n.d. 3.62 n.d.,1/9 (2.39)
KSSQSVLYESREKNSVA,WAWTRES,QQYHRYPLS,4.60 3.33 n.d.,6/9 (4.92)
KSRQSVLYESRNTNSAA,WASTRES,QQYHRLPLS,n.d. n.d. n.d.,0/9
KSSQSVLYESRNKNSVA,WASTGES,QQYHRLPLS,1.20 1.33 1.89,0/9
KSSQSVLYESRNKNSVA,WASTREP,QQYHRPPLS,0.63 0.82 0.75,2/9 (3.57)
KSSQTVLYESRNKNSVA,WAMTRES,QQYHRLPLS,3.37 2.13 2.65,1/9 (2.76)
KSSQSVLYESFNKNSFA,WASPRES,QQYHRLPLS,3.50 4.22 n.d.,3/9 (3.98)
KSSQSVLYMSRNKNSVA,WAGTREE,QQYHRLPLS,4.11 4.01 n.d.,1/9 (3.66)
KSSASVLYESRNKNSVA,WMSTRES,QQYHRLVLS,n.d. n.d. n.d.,0/9
KSSQSVLYESRNKNNVA,WASTREL,QQYHPLPLS,n.d. n.d. n.d.,0/9
KSSQSVLYESRNKNSVA,DASTRES,QQYHRLSLS,0.43 0.65 0.58,3/9 (5.38)
KSSISVLYESRLKNSVA,WAFTRES,QQYHRLPLS,4.83 3.37 n.d.,1/9 (4.61)
KSVQSVLYESRNKNEVA,WASTRES,QQYHRLGLS,2.61 2.40 2.84,3/9 (4.02)
KSSQSVLYESRNKNSVA,DAPTRES,QQYARLPLS,5.97 3.17 n.d.,4/9 (4.59)
KSSQSVLYESRNKDSVA,WASTREK,QQYHRLPLL,1.45 1.51 1.53,3/9 (4.55)
KSSQSVLYESRNCNSVG,WASTRES,QQYHRLPLS,n.d. n.d. n.d.,0/9
KSSQSVLYESRNKNSVA,WASTRDS,QQYHRLPLS,0.72 1.13 1.36,0/9
KSSQSVLYESYNKNSVA,RESTRES,QQYHRLPLS,6.70 4.73 n.d.,3/9 (4.20)
KSSQWVLYESRNKNSVI,WASTRES,QQYHRLYLS,n.d. n.d. n.d.,0/9
KSSQSVLYESRNKCSVA,WASTRES,DQYHRLPLP,3.06 3.98 n.d.,0/9
VSSQSVLYESRNKNSVA,WASTRES,QQMHRLPLS,n.d. n.d. n.d.,2/9 (3.76)
KSSQSVLHESRNKNSVA,WASTRES,QQVHRLPLS,n.d. 4.78 n.d.,0/9
KSSQSVLYEKRNKNSVA,WYSTRES,QQYHRLPLS,n.d. n.d. n.d.,0/9
KASQSVLYEIRNKNSVA,WASHRES,QQYHRLPLS,2.69 2.73 2.87,1/9 (3.25)
KSSQSVLDESRNKNSVM,WASTRES,MQYHRLPLS,n.d. 3.19 n.d.,2/9 (3.71)
KSSQSVLYELRNKNSVA,WASTRAS,QQYRRLPLS,3.31 2.62 3.48,6/9 (4.08)
NSSQSVLYESRNKNSVA,WKSTRES,QQYHLLPLS,2.13 1.81 1.88,0/9
KSSQSVLYESRNKNSVS,WASIRES,QQYHRLPLS,2.11 2.05 2.69,2/9 (4.16)
KSSWSVLYESRNKNSVN,WASTRES,QQYHRTPLS,n.d. n.d. n.d.,1/9 (2.82)

8 of these entries, quoted again:

CDR-L1	CDR-L2	CDR-L3	log10 Kd (nM) by replicate	signal with controls
KSSQSVLYESFNKNSFA	WASPRES	QQYHRLPLS	3.50 4.22 n.d.	3/9 (3.98)
KSSQSVLYELRNKNSVA	WASTRAS	QQYRRLPLS	3.31 2.62 3.48	6/9 (4.08)
KASQSVLYEIRNKNSVA	WASHRES	QQYHRLPLS	2.69 2.73 2.87	1/9 (3.25)
KSSQSVLYESRNKNSVA	WASTREP	QQYHRPPLS	0.63 0.82 0.75	2/9 (3.57)
KSSQSVVYESRNKNSVA	WASLRCS	QQYHRLPLS	2.09 1.63 2.08	2/9 (4.62)
KNSQSVLYESRNKNSVA	WAITKES	QQYHRLPLS	n.d. n.d. n.d.	0/9
KSSQSFLYESRNKNSVA	GASTRES	QQYHRLTLS	-1.05 -0.58 -0.90	1/9 (2.87)
KSSQSVLHESRNKNSVA	WASTRES	QQVHRLPLS	n.d. 4.78 n.d.	0/9

Data: MIT Lincoln Laboratory AlphaSeq set, Engelhart et al. 2022, doi:10.1038/s41597-022-01779-4, as distributed in FLAb.